Where two headings read alike, the source gives them in different places.
What was measured:
[1] = target: STAT6-HiBiT (Homo sapiens, UniProt P42226); test: STAT6 HiBiT degradation in A549 (STAT6-HiBiT) cells
Method: Degradation of STAT6 in endogenously tagged STAT6-HiBiT A549 cells was quantitatively measured using the Nano-Glo HiBiT Lytic Detection System (Promega, 3040). A549 (STAT6-HiBiT) cells were seeded in 384-well plates with a density of 1.25k cells per well in 20 μl fresh media. Compounds were then added to the assay plates using the Apricot S3 with a final top concentration of up to 10 uM in a 4-fold dilution series with total of 10 doses. The assay plates were then incubated for 24 hours at 37° C. under 5% CO2. At the assay endpoint, 20 μL of Nano-Glo HiBiT Lytic Reagent was added to each well and agitated on a plate shaker at 300 rpm for 10 minutes at room temperature. Luminescence was read on PHERAStar FSX Instrument (Is integration time). The data was analyzed by GraphPad Prism and the dose dependent STAT6 degradation was fit using the four-parameter inhibitor vs. response nonlinear regression.
The letter codes for DC50 (nM) include: A (<1 nM): B (1-10 nM); C (>10-100 nM); D (>100-1000 nM); E (>1000 nM); and F (not tested). The letter codes for Dmax (%) include: A (>90%); B (>70-90%); C (>50-70%); D (<50%); and E (not tested).

Sequences of proteins named here, by UniProt entry; tags and fusion partners are left off. Residues count along the entry.
UniProt P42226, whole entry: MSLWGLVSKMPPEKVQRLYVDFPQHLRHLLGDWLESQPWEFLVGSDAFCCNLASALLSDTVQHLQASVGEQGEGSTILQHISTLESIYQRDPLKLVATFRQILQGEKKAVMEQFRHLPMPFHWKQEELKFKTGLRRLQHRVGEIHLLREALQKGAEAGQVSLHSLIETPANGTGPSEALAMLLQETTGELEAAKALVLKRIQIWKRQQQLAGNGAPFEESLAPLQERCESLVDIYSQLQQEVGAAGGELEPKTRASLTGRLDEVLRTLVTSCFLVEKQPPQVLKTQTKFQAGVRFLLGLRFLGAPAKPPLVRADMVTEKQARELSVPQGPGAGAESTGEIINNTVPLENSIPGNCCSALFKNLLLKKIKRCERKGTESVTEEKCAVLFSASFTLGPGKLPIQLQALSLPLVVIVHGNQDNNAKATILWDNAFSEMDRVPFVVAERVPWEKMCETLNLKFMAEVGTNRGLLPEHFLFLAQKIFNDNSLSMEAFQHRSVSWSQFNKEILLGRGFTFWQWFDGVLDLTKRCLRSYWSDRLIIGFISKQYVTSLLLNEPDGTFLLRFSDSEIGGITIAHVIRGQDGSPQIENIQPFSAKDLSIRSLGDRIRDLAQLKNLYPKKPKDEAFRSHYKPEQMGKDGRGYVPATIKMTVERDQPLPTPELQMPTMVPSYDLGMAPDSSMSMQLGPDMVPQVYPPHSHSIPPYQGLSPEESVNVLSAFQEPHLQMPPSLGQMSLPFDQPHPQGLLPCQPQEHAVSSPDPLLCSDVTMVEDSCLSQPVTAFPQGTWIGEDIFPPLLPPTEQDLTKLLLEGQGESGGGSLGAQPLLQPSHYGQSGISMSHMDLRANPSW
UniProt P42226, 123-632 limits assumed: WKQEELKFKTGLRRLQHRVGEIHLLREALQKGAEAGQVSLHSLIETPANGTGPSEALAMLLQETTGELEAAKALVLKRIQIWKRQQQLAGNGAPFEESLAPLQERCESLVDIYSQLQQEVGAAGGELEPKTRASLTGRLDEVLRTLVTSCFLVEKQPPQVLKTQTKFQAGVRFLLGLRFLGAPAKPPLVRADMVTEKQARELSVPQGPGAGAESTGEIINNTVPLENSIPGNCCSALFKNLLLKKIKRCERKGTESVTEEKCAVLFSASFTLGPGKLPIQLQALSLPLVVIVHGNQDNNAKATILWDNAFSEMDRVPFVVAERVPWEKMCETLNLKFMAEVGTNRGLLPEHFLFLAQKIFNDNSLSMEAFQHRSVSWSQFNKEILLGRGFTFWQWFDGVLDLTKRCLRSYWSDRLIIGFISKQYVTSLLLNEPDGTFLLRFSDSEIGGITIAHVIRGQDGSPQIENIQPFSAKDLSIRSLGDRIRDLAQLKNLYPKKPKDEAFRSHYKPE

[2] = target: STAT6 (Homo sapiens, UniProt P42226); test: STAT6 MSD degradation in A549 cells; conditions: for DC50: read-out: STAT6 MSD degradation DC50 (nM) 24 h
How it was run: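 A549 cells treated with a 9-point 1:3 series (top up to 10 uM) for 4 to 24 hours at 37° C., then lysed in RIPA. STAT6 quantified by sandwich MSD electrochemiluminescence immunoassay. DC50 and Dmax from four-parameter nonlinear fit, reported as letter-code bins.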

[3] = target: biotinylated truncated STAT6 (123-632)-avi (Homo sapiens, UniProt P42226); test: STAT6 HTRF binding assay; conditions: read-out: STAT6 HTRF: Average IC50, 0.15 nM biotinylated truncated STAT6 (123-632)-avi, 20 nM fluorescein-labeled probe

Compound | STAT6 HiBiT degradation Dmax % 24 h [1] | DC50 ([1]; read-out: STAT6 HiBiT degradation DC50 (nM) 24 h) [nM] | STAT6 MSD degradation Dmax % 24 h [2] | DC50 [2] [nM] | IC50 ([3]; HTRF binding) [nM] | IC50 ([3]; 30 minutes at room temperature) [nM]
CN(C)C(=O)c1cc2c(-c3ccc(C4CCN(c5ccc(C6CCC(=O)NC6=O)cc5F)CC4)cc3)cc(C3=CCCN(C(=O)CCn4ccnn4)C3)c(F)c2[nH]1 (stereo not shown) | A (A (>90%)) | < 1 | A (A (>90%)) | < 1 |  | 
Cc1nn(C2CCC(=O)NC2=O)c2cccc(N3CCC(c4ccc(-c5cc([C@H]6CCCN(C(=O)CCn7cccn7)C6)c(F)c6[nH]c(C(=O)N(C)C)cc56)c(F)c4F)CC3)c12 (stereo partly shown) |  |  | A (A (>90%)) | 1 to 10 | 100 to 1000 | 
CC(=O)N1CCC=C(c2cc(-c3ccc(N4CCN(CCc5cccc6c5c(C)nn6C5CCC(=O)NC5=O)CC4)cc3OC(F)(F)F)c3cc(C(=O)N(C)C)[nH]c3c2F)C1 (stereo not shown) |  |  | A (A (>90%)) | 1 to 10 | 100 to 1000 | 
Cn1c(=O)n(C2CCC(=O)NC2=O)c2cccc(N3CC(C4CCN(c5ccc(-c6cc([C@H]7CCCN(C(=O)CCn8cccn8)C7)c(F)c7[nH]c(C(=O)N8CCC8)cc67)cc5)CC4)C3)c21 (stereo partly shown) |  |  | A (A (>90%)) | < 1 | 1000 to 10000 | 
CN(C)C(=O)c1cc2c(-c3ccc(C4CCN(c5ccc(OC6CCC(=O)NC6=O)cc5F)CC4)cc3)cc(C3=CCCN(C(=O)CCn4cccn4)C3)c(F)c2[nH]1 (stereo not shown) |  |  | A (A (>90%)) | 1 to 10 | < 100 | 
CN(C)C(=O)c1cc2c(-c3cc(F)c(N4CCC(c5ccc(NC6CCC(=O)NC6=O)cc5F)CC4)cc3F)cc(C3=CCCN(C(=O)CCn4cccn4)C3)c(F)c2[nH]1 (stereo not shown) |  |  | A (A (>90%)) | < 1 | 100 to 1000 | 
CC(C)C(=O)N1CCC=C(c2cc(-c3ccc(N4CCN(CCc5cccc6c(C7CCC(=O)NC7=O)nn(C)c56)CC4)cc3OC(F)(F)F)c3cc(C(=O)N(C)C)[nH]c3c2F)C1 (stereo not shown) |  |  | A (A (>90%)) | 1 to 10 | 1000 to 10000 | 
COc1cc(CCC2CCN(c3ccc(C4CCC(=O)NC4=O)cc3F)CC2)ccc1-c1cc(C2=CCCN(C(=O)CCn3ccnn3)C2)c(F)c2[nH]c(C(=O)N(C)C)cc12 (stereo not shown) |  |  | A (A (>90%)) | < 1 | < 100 | 
CN(C(=O)c1cc2c(-c3ccc(N4CCN(CCCc5cccc6c5n(C)c(=O)n6C5CCC(=O)NC5=O)CC4)cc3)cc([C@H]3CCCN(C(=O)CCn4cccn4)C3)c(F)c2[nH]1)C1CC1 (stereo partly shown) |  |  | A (A (>90%)) | < 1 | < 100 | 
Cc1cc(C2CCN(c3cccc4c3n(C)c(=O)n4C3CCC(=O)NC3=O)CC2)ccc1-c1cc(C2=CCCN(C(=O)[C@@H](C)Cn3cccn3)C2)c(F)c2[nH]c(C(=O)N(C)C)cc12 (stereo partly shown) |  |  | C (C (>50-70%)) | 1 to 10 | 10000 to 100000 | 
COc1cc(N2CCN(c3ccc(-c4cc(C5=CCCN(C(=O)CCn6cccn6)C5)c(F)c5[nH]c(C(=O)N(C)C)cc45)c(C4CC4)c3)CC2)c(F)cc1NC1CCC(=O)NC1=O (stereo not shown) |  |  | B (B (>70-90%)) | < 1 | < 100 | 
CC(C)C(=O)N1CCC=C(c2cc(-c3cc(F)c(N4CCN(CCc5cccc6c5n(C)c(=O)n6C5CCC(=O)NC5=O)C[C@H]4C)cc3F)c3cc(C(=O)N(C)C)[nH]c3c2F)C1 (stereo partly shown) |  |  | A (A (>90%)) | < 1 | 1000 to 10000 | 
CN(C)C(=O)c1cc(-c2ccc(N3CCN(CCc4cccc5c4n(C)c(=O)n5C4CCC(=O)NC4=O)CC3)cc2)c2[nH]c(C3=CCCN(C(=O)CCn4ccnn4)C3)cc2c1 (stereo not shown) |  |  | A (A (>90%)) | 1 to 10 | < 100 | 
CC(C)C(=O)N1CCC=C(c2cc(-c3ccc([C@H]4CCN(CCc5cccc6c(C7CCC(=O)NC7=O)nn(C)c56)CC4(F)F)cc3F)c3cc(C(=O)N(C)C)[nH]c3c2F)C1 (stereo partly shown) |  |  | A (A (>90%)) | < 1 | 1000 to 10000 | 
Cc1nn(C2CCC(=O)NC2=O)c2cccc(CCN3CCN(c4ccc(-c5cc(C6=CCCN(C(=O)C(C)C)C6)c(F)c6[nH]c(C(=O)N(C)C)cc56)c(F)c4)CC3)c12 (stereo not shown) |  |  | A (A (>90%)) | 1 to 10 | 1000 to 10000 | 
COc1cc(C2CCN(c3ccc(C4CCC(=O)NC4=O)cc3F)CC2)ccc1-c1cc(C2=CCCN(C(C)=O)C2)c(F)c2[nH]c(C(=O)N(C)C)cc12 (stereo not shown) |  |  | B (B (>70-90%)) | 1 to 10 | 100 to 1000 | 
COc1cc(N2CCN(CCCCCCCCCCCCCCN(C(=O)[C@H]3CCCN(c4cncc5ccccc45)C3)c3ccc(=O)n(CC(=O)O)c3)CC2)ccc1-c1cc(C2=CCCN(C(=O)CCn3ccnn3)C2)c(F)c2[nH]c(C(=O)N(C)C)cc12 |  |  | B (B (>70-90%)) | 10 to 100 | < 100 | 
O=C1CCC(c2ccc(N3CCC(c4ccc(-c5cc(C6=CCCN(C(=O)CCn7ccnn7)C6)c(F)c6[nH]ncc56)c(F)c4)CC3)c(F)c2)C(=O)N1 (stereo not shown) |  |  | B (B (>70-90%)) | 10 to 100 | 1000 to 10000 | 
CN(C)C(=O)c1cc2c(-c3ccc(N4CCN(CCc5cccc6c(C7CCC(=O)NC7=O)nn(C)c56)CC4)cc3)cc(C3=CCCN(C(=O)CCn4cccn4)C3)c(F)c2s1 (stereo not shown) |  |  | A (A (>90%)) | 1 to 10 | 100 to 1000 | 
COc1cc(N2CCN(CCc3ccc(C4CCC(=O)NC4=O)cc3F)CC2)ccc1-c1cc(C2=CCCN(C(=O)CCn3cccn3)C2)c(F)c2cc(C(=O)N(C)C)oc12 (stereo not shown) |  |  | A (A (>90%)) | < 1 |  | < 100
COc1cc([C@H]2CC[C@H](c3ccc(-c4cc(C5=CCCN(C(=O)CCn6cccn6)C5)c(F)c5[nH]c(C(=O)N(C)C)cc45)c(F)c3)CC2)c(F)cc1NC1CCC(=O)NC1=O (relative stereo) |  |  | B (B (>70-90%)) | 1 to 10 | 1000 to 10000 | 
COc1cc(N2CCC(N3CCN(c4ccc(-c5cc(C6=CCCN(C(=O)CCn7cccn7)C6)c(F)c6[nH]c(C(=O)N(C)C)cc56)cc4)CC3)CC2)c(F)cc1NC1CCC(=O)NC1=O (stereo not shown) |  |  | A (A (>90%)) | < 1 | < 100 | 
CC(=O)N1CCC=C(c2cc(-c3ccc(C4CCN(c5cccc6c(C7CCC(=O)NC7=O)nn(C)c56)CC4)cc3C)c3cc(C(=O)N(C)C)[nH]c3c2F)C1 (stereo not shown) |  |  | A (A (>90%)) | 1 to 10 | 1000 to 10000 | 
CC(=O)N1CCC[C@H](c2cc(-c3ccc(C4CCN(c5cccc6c5n(C)c(=O)n6C5CCC(=O)NC5=O)CC4)cc3C)c3cc(C(=O)N(C)C)[nH]c3c2F)C1 (stereo partly shown) |  |  | A (A (>90%)) | < 1 | 1000 to 10000 | 
Cc1nn(C2CCC(=O)NC2=O)c2cccc(CCN3CCC(c4cc(Cl)c(-c5cc([C@H]6CCCN(C(=O)CCn7cccn7)C6)c(F)c6[nH]c(C(=O)N(C)C)cc56)cc4F)CC3)c12 (stereo partly shown) |  |  | A (A (>90%)) | < 1 | < 100 | 
CN(C)C(=O)c1cc2c(-c3ccc(C4CCN(c5cc(F)c(C6CCC(=O)NC6=O)cc5F)CC4)cc3)cc([C@H]3CCCN(C(=O)CCn4cccn4)C3)c(F)c2[nH]1 (stereo partly shown) |  |  | A (A (>90%)) | 1 to 10 | 100 to 1000 | 
COc1cc(N2CC[C@H](c3ccc(-c4cc(C5=CCCN(C(=O)CCn6cccn6)C5)c(F)c5[nH]c(C(=O)N(C)C)cc45)c(C)c3)C(F)(F)C2)c(F)cc1NC1CCC(=O)NC1=O (stereo partly shown) |  |  | A (A (>90%)) | 1 to 10 | < 100 | 
